# The list is not random: actives were taken first. Their share in the collection is about 1.8%.
# DENV2 CPE rescue = DENV2-induced cell death inhibition. DENV2-infected cells, cytopathic effect rescue, plate reader. CPE inhibition, % at 9.99 µM. hit rate 1.7% among 350,000. AID 651640; in the data active = CPE inhibition above about 20%, passing the limit was not always enough; tested in BHK-21 cells;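 also: 0% = median of neutral control wells and 100% = median of positive control wells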
# Cneo AK release = causes C. neoformans cell lysis; adenylate kinase release luminescence, 4 h; normalised: neutral wells 0, clomiphene wells 100; lysis activity, % at 15 µM; hit rate 0.2% among 360,000;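 active = mean lysis activity across replicates of at least 80%, whatever share of replicates individually reach that level; inactive = mean lysis activity below 80%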
#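 Assay system: Cryptococcus neoformans yeast cells / Dosing: single-point compound dose / Timing: 4 h at 37 °C static, read 1 h later / Measured by: luminescence of released adenylate kinase using an AK detection reagent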
# E-selectin induc = induces E-selectin expression in human endothelial cells. HUVEC E-selectin immunofluorescence imaging; normalized: neutral wells 0, TNF-alpha wells 100. activation, % at 7.58 µM. hit rate 0.37% among 260,000;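 active = mean E-selectin-positive cell signal at least 10% of the positive control, reached in at least 60% of replicates, without over 20% cell loss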
#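 Read-out: % PE-positive cells | Test system: HUVEC | Doses: One compound dose added by pin transfer | Buffer or medium: EGM-2 over gelatin coat | Signal: Immunofluorescence imaging | Benchmarks: TNF-alpha, DMSO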
# UUG fidelity = modulators of yeast start codon fidelity, primary screen, whole organism, S. cerevisiae, single point, plate reader | S. cerevisiae UUG-firefly luciferase reporter, luminescence/redox ratio | activity score, % at 18.7 µM | hit rate 0.13% among 350,000;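 active = replicate mean at a twofold rise or more, about +100% in these data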;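 note: firefly luciferase made from a UUG start codon reports start codon fidelity; reporter light over untreated wells divided by growth signal over untreated wells; some hits fall short of that in this replicate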
# Active calls of the source: *; . = not tested or not shown; ! = a repeat was not active.
SMILES,DENV2 CPE rescue,Cneo AK release,E-selectin induc,UUG fidelity
O=[N+]([O-])c1ccc(O)c(/C=N/n2cnc3ccccc32)c1,70*,-10,.,-24
O=[N+]([O-])c1ccc(O)c(/C=N/n2c(CO)nc3ccccc32)c1,7,-6,.,-20
COCC(=O)N1C[C@@H](C)[C@H](OC)CN(C)C(=O)c2ccc(NC(=O)c3cnccn3)cc2OC[C@@H]1C,6,.,0,.
COc1ccccc1C(=O)Nc1ccc2c(c1)C(=O)N(C)C[C@@H](OC)[C@@H](C)CN(C)[C@@H](C)CO2,5,-2,0,.
Cn1nc(C(=O)NNC(=O)c2ccc(Cl)c(S(N)(=O)=O)c2)c2ccccc2c1=O,-2,2,.,10
Cn1nc(C(=O)NNC(=O)c2ccccc2Br)c2ccccc2c1=O,6,-1,237*,-16
Cn1nc(C(=O)NNC(=O)c2ccccc2F)c2ccccc2c1=O,14,0,.,-41
Cn1nc(C(=O)NNC(=O)c2cccc(Cl)c2)c2ccccc2c1=O,67*,0,.,-10
Cc1ccc(S(=O)(=O)Nc2ccc3c(c2)C(=O)N([C@@H](C)CO)C[C@@H](C)[C@H](CN(C)C(=O)c2ccccc2)OCCCC[C@@H](C)O3)cc1,-4,-4,.,20
O=C(CCN1CCCCC1)NCC[C@@H]1CC[C@H](NC(=O)C2CCCCC2)[C@H](CO)O1,-2,.,0,.
O=C(C[C@@H]1CC[C@@H]2[C@H](COC[C@H](O)CN2C(=O)Nc2ccc(Cl)cc2)O1)N1CCCCC1,1,-8,0,-6
CCOC(=O)[C@H]1[C@H]2COc3ccc(Cl)cc3[C@@H]2N2C(=O)c3ccc(Cl)cc3NC(=O)[C@@]12C,52*,1,0,-8

# Already shown: entries from further up.
SMILES,DENV2 CPE rescue,Cneo AK release,E-selectin induc,UUG fidelity
Cc1ccc(S(=O)(=O)Nc2ccc3c(c2)C(=O)N([C@@H](C)CO)C[C@@H](C)[C@H](CN(C)C(=O)c2ccccc2)OCCCC[C@@H](C)O3)cc1,-4,-4,.,20
O=C(CCN1CCCCC1)NCC[C@@H]1CC[C@H](NC(=O)C2CCCCC2)[C@H](CO)O1,-2,.,0,.
O=C(C[C@@H]1CC[C@@H]2[C@H](COC[C@H](O)CN2C(=O)Nc2ccc(Cl)cc2)O1)N1CCCCC1,1,-8,0,-6
CCOC(=O)[C@H]1[C@H]2COc3ccc(Cl)cc3[C@@H]2N2C(=O)c3ccc(Cl)cc3NC(=O)[C@@]12C,52*,1,0,-8

# Gathered by group: the compounds so far containing a nitro group on carbon (2)
SMILES,DENV2 CPE rescue,Cneo AK release,E-selectin induc,UUG fidelity
O=[N+]([O-])c1ccc(O)c(/C=N/n2cnc3ccccc32)c1,70*,-10,.,-24
O=[N+]([O-])c1ccc(O)c(/C=N/n2c(CO)nc3ccccc32)c1,7,-6,.,-20

# (cont.)
SMILES,DENV2 CPE rescue,Cneo AK release,E-selectin induc,UUG fidelity
CCOC(=O)[C@@H]1[C@H]2COc3ccc(Br)cc3[C@@H]2N2C(=O)N(c3cccc(Cl)c3)C(=O)[C@@]12C,68*,-3,0,-18
CCOC(=O)[C@H]1[C@H]2COc3cc(OC)ccc3[C@@H]2N2C(=O)CN(Cc3ccco3)C(=O)[C@@]12C,30*,2,0,16
CCOC(=O)[C@@H]1[C@H]2COc3ccc(Br)cc3[C@@H]2N2C(=O)N(c3cccc(Cl)c3)C(=O)[C@]12C,-4,-2,0,-18
CCOC(=O)[C@@H]1[C@H]2COc3cc(OC)ccc3[C@H]2N2C(=O)N(c3cccc(F)c3)C(=O)[C@]12C,104*,0,1,0
CCOC(=O)[C@H]1[C@H]2COc3ccc(OC)cc3[C@@H]2N2C(=O)CN(Cc3ccco3)C(=O)[C@@]12C,-9,2,0,-4
COc1ccc2c3c(n(C)c2c1)[C@H](CO)N(Cc1cc(F)ccc1F)CC31CN(C(=O)C2CC2)C1,-6,.,0,.
COCC(=O)Nc1ccc2c(c1)[C@H]1C[C@H](CC(=O)NCC3CC3)O[C@H](CO)[C@H]1O2,16,1,0,-12
CC1(C)Cc2ccccc2-c2nc3n(c(=O)c21)CCS3,2,.,77*,.
CC1(C)Cc2ccccc2-c2nc3n(c(=O)c21)CCCS3,2,.,.,.
O=C(C[C@@H]1CC[C@H](NC(=O)CC2CC2)[C@H](CO)O1)NCc1ccc(Cl)cc1,15,-3,1,.
O=[N+]([O-])c1c(NCCCO)cc(N2CCCCCC2)c2nonc12,37*,0,0,-23
O=C(CSc1nnc(-c2ccncc2)o1)Nc1cc(Cl)ccc1C(=O)O,39*,-1,0,-14
O=C(CSc1nnc(-c2ccncc2)o1)Nc1cc(F)ccc1F,44*,-1,.,3
O=C(CSc1nnc(-c2ccncc2)o1)Nc1ccccc1Cl,.,1,.,-18
O=C(CSc1nnc(-c2ccncc2)o1)Nc1cccc(F)c1,13,-2,.,-7
COc1ccccc1C(=O)Nc1ccc2c(c1)OC[C@@H](C)N(C)C[C@@H](C)[C@@H](OC)CN(C)C2=O,6,46,0,5
COCC(=O)N(C)C[C@@H]1Oc2ncc(C#Cc3ccccc3)cc2C(=O)N([C@@H](C)CO)C[C@@H]1C,14,0,0,-6
CCNC(=O)c1cc2c(c(-c3cccc(-c4cncnc4)c3)n1)[C@@H](CCO)N(C(C)=O)C2,40*!,0,0,.
CC(=O)N1Cc2cc(C(=O)NCC(F)(F)F)nc(-c3cccc(-c4cc5ccccc5o4)c3)c2[C@H]1CCO,25*!,.,1,.
CC(=O)N1Cc2cc(C(=O)NCC(F)(F)F)nc(-c3cccc(-c4cncnc4)c3)c2[C@@H]1CCO,21*,.,0,.
CC(C)NC(=O)N1Cc2cc(C(=O)NC3CCCC3)nc(-c3cccc(-c4cccnc4)c3)c2[C@H]1CCO,6,.,3,.
CC(C)NC(=O)N1Cc2cc(C(=O)NC3CCC3)nc(-c3cccc(-c4cccnc4)c3)c2[C@@H]1CCO,30*,.,0,.
C[C@@H]1CN([C@H](C)CO)C(=O)c2cc(-c3ccc(F)cc3)cnc2O[C@@H]1CN(C)C(=O)Nc1ccc(F)cc1,.,.,0,-1
OC[C@@H]1CC[C@@H]2O[C@H](CCc3ccc(C#CCc4ccccc4)cc3)[C@H](n3cc(-c4ccccc4)nn3)C[C@@H]2O1,-4,.,.,.
COC(=O)c1ccc(N2C(c3cc(OC)cc(OC)c3)=Cc3ccc(OC)cc3C2CC(=O)c2ccco2)cc1 (centres undefined),31*,.,0,.
CCOC(=O)c1ccc(NC(=O)c2nc[nH]c2C(=O)NC[C@@H](C)O)cc1,-1,0,1,-8
CNC(=O)c1[nH]cnc1C(=O)Nc1ccc(Cl)cc1,41*,1,0,-7
Cc1cccc(NC(=O)c2nc[nH]c2C(=O)NCCCNC(=O)c2[nH]cnc2C(=O)Nc2cccc(C)c2)c1,45*,0,0,-13
Cc1ccc(NC(=O)c2nc[nH]c2C(=O)N[C@@H](C)C(=O)OC(C)(C)C)cc1,98*,2,0,-18
CCOC(=O)c1ccc(NC(=O)c2nc[nH]c2C(=O)NC[C@H](C)O)cc1,80*,-1,.,-8
CC(C)C[C@@H](CN1C(=O)C(=O)NC[C@@H]1CC(C)C)NC(=O)Cc1ccccc1,43*,0,.,-4
O=C(NCC(F)(F)F)[C@@H]1[C@@H](CO)[C@@H]2Cn3c(cccc3=O)[C@@H]2N1C(=O)C1CC1,-2,-5,0,.
C/C(=N\OCC(=O)Nc1ccccc1C(C)(C)C)c1ccc2c(c1)OCCO2,-1,1,0,-4
C/C(=N\OCC(=O)Nc1ccc(OC(F)(F)F)cc1)c1ccc2c(c1)OCCO2,108*,.,.,.
COc1cc(NC(=O)COC(=O)CO/N=C(\C)c2ccc3c(c2)OCO3)cc(OC)c1,-3,1,-3,-6
COc1cc(NC(=O)COC(=O)CO/N=C(\C)c2ccc3c(c2)OCO3)cc(OC)c1OC,1,.,180*,.
Cc1sc2ncnc(N3CCC(C(=O)Nc4ccc(Cl)cc4Cl)CC3)c2c1C,30*,.,0,.
CCCN(C)C[C@H]1OCCCC[C@@H](C)Oc2ccc(NS(=O)(=O)c3ccc(OC)cc3)cc2C(=O)N([C@H](C)CO)C[C@@H]1C,55*,4,0,3

# Screening results (PubChem BioAssay)
